GIV-Gai inh – inhibitors of GIV GBA-motif binding to rat Galpha-i3; percent of control (FP), % (concentration not given with the values); AID 1224905; Galpha-i3/FITC-GIV peptide fluorescence polarization, 90 min; stronger effect = lower value; scaled: aluminum fluoride 0%, vehicle 100%; 210,000 compounds, 0.42% hits; P08753;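 active means replicate mean at 85% of control or lower, very high polarization wells dropped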;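 further: wells of about 15 µL received 100 nL stock; the first replicate is given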
HCMV UL50-53 inh – inhibitors of HCMV UL50-UL53 nuclear egress complex interaction. HTRF UL50-UL53 interaction, normalized percent inhibition. inhibition, % (test concentration not listed). 190,000 compounds, 0.15% hits. AID 1918969; in the data active = inhibition above about 27%, passing the limit was not always enough
Large screens that a line does not name were inactive. The list is not random: actives were taken first. Their share in the collection is about 0.43%.

O=c1oc2cc(O)ccc2cc1-c1nc(-c2cccs2)cs1	GIV-Gai inh -32 (no result: HCMV UL50-53 inh)
O=c1oc2cc(O)ccc2cc1-c1nc(-c2ccc(Cl)c(Cl)c2)cs1	GIV-Gai inh -69 (no result: HCMV UL50-53 inh)
CC(=O)Oc1ccc2cc(-c3nc(-c4ccc(Cl)c(Cl)c4)cs3)c(=O)oc2c1	none (no result: HCMV UL50-53 inh)
CC(=O)Oc1ccc2cc(-c3nc(-c4cccs4)cs3)c(=O)oc2c1	none (no result: HCMV UL50-53 inh)
CCOC(=O)N1CCN(c2ncnc3c2c(-c2ccccc2)cn3-c2cccc(C)c2)CC1	none (no result: HCMV UL50-53 inh)
Cc1ccc(CNC(=O)c2cccc(Nc3nc4ccccc4n4cnnc34)c2)cc1	none (no result: HCMV UL50-53 inh)
O=C(c1ccc2nc(/C=C(\O)c3ccc(Cl)cc3)c(=O)[nH]c2c1)N1CCN(c2ccco2)CC1	none
O=C(c1ccc2nc(/C=C(\O)c3ccc(Cl)cc3)c(=O)[nH]c2c1)N1CCOCC1	GIV-Gai inh 68
O=C(c1cc2c(=O)[nH]c3ccccc3c2s1)N1CCCC1	GIV-Gai inh 58 (no result: HCMV UL50-53 inh)
O=C(c1cc2c(=O)[nH]c3ccccc3c2s1)N1CCN(c2ccc(F)cc2)CC1	none
COc1ccc(C2C=C(c3ccc(Br)cc3)Nc3nc4ccccc4n32)cc1OC (stereo not drawn)	none (no result: HCMV UL50-53 inh)
CC(=Nc1cccc(O)c1)c1sc2ccccc2c1O	none
CC(=Nc1cccc(Br)c1)c1sc2ccccc2c1O	GIV-Gai inh 56
COc1ccc(CCNC(=O)c2c(C)oc3ncnc(N4CCOCC4)c23)c(OC)c1	none (no result: HCMV UL50-53 inh)
N#CC1=C(N)SC(N)=C(C#N)C1c1cccc2ccccc12	GIV-Gai inh -36
N#CC1=C(N)SC(N)=C(C#N)C1c1ccccc1F	none (no result: GIV-Gai inh)
CC(C)C1C(C#N)=C(N)SC(N)=C1C#N	none
Cc1ccc(C2C(C#N)=C(N)SC(N)=C2C#N)c(C)c1	GIV-Gai inh 8.5
CCN(Cc1ccccc1)C(=O)CCn1ccc(C)n1	none
N#CC1=C(N)OC2=C(CC/C2=C/c2ccccc2)C1c1ccccc1 (stereo not drawn)	GIV-Gai inh -57
CCN1CC2=C(OC(N)=C(C#N)C2c2ccc(F)cc2)/C(=C/c2ccc(F)cc2)C1 (stereo not drawn)	none (no result: HCMV UL50-53 inh)
O=C(CC1Nc2ccccc2NC1=O)Nc1cccc2ccccc12 (stereo not drawn)	none
NC(=O)C[n+]1ccn2c(NC3CCCCC3)c(-c3ccccc3O)nc2c1	GIV-Gai inh -75 (no result: HCMV UL50-53 inh)
Cc1ccc(Nc2c(-c3ccccc3O)nc3cc(C)ccn23)cc1	none
Nc1[nH]ncc1-c1ccsc1	none (no result: GIV-Gai inh)
C=CCn1c(=O)[nH]c2nc3cc(N=CN(C)C)ccc3nc2c1=O	none
C=CCn1c(=O)[nH]c2nc3cc(N=CN(C)C)c(C)cc3nc2c1=O	GIV-Gai inh -16 (no result: HCMV UL50-53 inh)
COc1ccc(C2CC(=O)C3=C(C2)NC(C)=C(C(=O)OCc2ccccc2)C3c2ccc(OC(C)=O)c(OC)c2)cc1 (stereo not drawn)	none
COc1cc(/C=C2\Cc3ccccc3C2=O)ccc1O	none
CN1CCCc2cc(/C=C3\Cc4ccccc4C3=O)ccc21	GIV-Gai inh -75 (no result: HCMV UL50-53 inh)
Cc1sc(-c2noc(C(C)C)n2)cc1S(=O)(=O)N1CCCC(C(=O)N2CCN(C)CC2)C1 (stereo not drawn)	none
CCN(CC)c1ccc(/C=C2\CCc3ccccc3C2=O)cc1	none (no result: HCMV UL50-53 inh)
CN(C)/C=C/C=C1/CCc2ccccc2C1=O	GIV-Gai inh -3.8
CNc1cccc2cccc(OC)c12	none (no result: GIV-Gai inh)
COc1ccc2cccc3c2c1C=CC3=O	GIV-Gai inh -89
COC(=O)c1ccc(-n2c(C)cc3ccccc32)s1	none
Cc1cc2ccccc2n1-c1ccc(C(=O)NC2CCCC2)s1	HCMV UL50-53 inh 56
Cc1cc(Sc2ccccc2NC(=O)Nc2ccc(F)cc2F)n2ncnc2n1	none
COc1cccc(NC(=O)N2CCN(c3nc4cccnc4n(Cc4ccccc4)c3=O)CC2)c1	none
COc1ccc(C)cc1NC(=O)Nc1ccccc1OCc1cc(=O)n2ccccc2n1	none (no result: HCMV UL50-53 inh)
COc1cc(CN2CCC3(CC2)Nc2ccccc2-n2cccc23)cc(OC)c1OC	HCMV UL50-53 inh 60
COc1ccc(S(=O)(=O)N2CCC3(CC2)Nc2ccccc2-n2cccc23)cc1OC	none
COCc1cc(C)nc2sc3c(=O)n(C(C)(C)C)nnc3c12	none
N#CC1=C(N)SC(N)=C(C#N)C1c1cc2c(cc1Cl)OCO2	GIV-Gai inh -0.4
CCc1ccc(C2C(C#N)=C(N)Oc3cc4c(cc32)OCO4)cc1 (stereo not drawn)	none (no result: HCMV UL50-53 inh)
COC(=O)CN1C(=O)Cc2ccccc2C1=O	none
O=C(O)CN1C(=O)Cc2ccccc2C1=O	HCMV UL50-53 inh 103 (no result: GIV-Gai inh)
COc1ccc(/C=C2\C=C(c3ccccc3)N(c3ccc(C)c(C)c3)C2=O)cc1Br	GIV-Gai inh 64 (no result: HCMV UL50-53 inh)
COc1ccc(/C=C2\C=C(c3ccccc3)N(c3ccccc3)C2=O)cc1Br	none (no result: HCMV UL50-53 inh)
CSc1nnc2c(n1)OC1(Nc3ccccc3-2)C(=O)Nc2ccc(Cl)cc21 (stereo not drawn)	HCMV UL50-53 inh 50
CCSc1nnc2c(n1)OC1(Nc3ccccc3-2)C(=O)Nc2ccc(Br)cc21 (stereo not drawn)	none (no result: GIV-Gai inh)
CCC1CCCCN1S(=O)(=O)c1cc(-c2nc(-c3ccc(Cl)cc3)no2)cs1 (stereo not drawn)	none (no result: HCMV UL50-53 inh)
CC(C)Cn1c(=O)c2ccccc2n2c(=O)n(CC(=O)Nc3cc(F)ccc3F)nc12	none
CN(C)c1ccc(/C=C2/SC(=S)N(CC(=O)O)C2=O)cc1	GIV-Gai inh -61
O=C(O)CN1C(=O)/C(=C\c2ccc(O)cc2)SC1=S	none
COc1ccc(-n2cnc3c(C)nc(Nc4ccc(C)cc4)nc32)cc1	none (no result: HCMV UL50-53 inh)
O=C(NC12CC3CC(CC(C3)C1)C2)C1CCC1	none (no result: GIV-Gai inh)
CCNc1cc(NCC)c2noc3c2c1C(=O)c1ccccc1-3	none
CC(C)CNc1cc(N2CCCC2)c2noc3c2c1C(=O)c1ccccc1-3	none
CCNc1ccc2noc3c2c1C(=O)c1ccccc1-3	GIV-Gai inh -48
O=C(O)CCCNc1cc(N2CCCC2)c2noc3c2c1C(=O)c1ccccc1-3	none
CCOC(=O)N1CCN(c2cc(NCCC(=O)O)c3c4c(onc24)-c2ccccc2C3=O)CC1	GIV-Gai inh -79 (no result: HCMV UL50-53 inh)
CCCCNc1cc(N2CCN(C3CCCCC3)CC2)c2noc3c2c1C(=O)c1ccccc1-3	none
CCOC(=O)N1CCN(c2cc(NCCCC(=O)O)c3c4c(onc24)-c2ccccc2C3=O)CC1	GIV-Gai inh -74
CCNc1cc(N2CCCCCC2)c2noc3c2c1C(=O)c1ccccc1-3	GIV-Gai inh -20
CCOc1ccc(NC(=O)c2ccnc(N3CCC(C(=O)Nc4ccc(F)cc4)CC3)c2)cc1	none
c1ccc2c(c1)OCC(CSc1nnc3c(n1)[nH]c1ccccc13)O2 (stereo not drawn)	none
CC1(C(=O)NC2CCCCC2)Cn2c(nc3ccccc32)C(=O)N1CC1CCCO1 (stereo not drawn)	none
CC(=O)N1CCCC(C(=O)O)C1 (stereo not drawn)	none (no result: GIV-Gai inh)
CCOC(=O)C1CCN(c2cc(NCC(=O)O)c3c4c(onc24)-c2ccccc2C3=O)CC1	GIV-Gai inh -57
Cc1cccc(Nc2cc(NCc3ccccc3)c3noc4c3c2C(=O)c2ccccc2-4)c1	none (no result: HCMV UL50-53 inh)
CCN1CCN(c2cc(NCC(=O)O)c3c4c(onc24)-c2ccccc2C3=O)CC1	none
O=C1c2ccccc2-c2onc3c(Br)cc(NCc4ccccc4)c1c23	GIV-Gai inh -21 (no result: HCMV UL50-53 inh)
Cc1ccc(Cl)cc1NC(=O)Cn1c(=O)n(Cc2ccc(Cl)cc2)c(=O)c2nccnc21	none
Cc1ccc(-c2nnc(Nc3ccc(OCC(N)=O)cc3)c3ccccc23)cc1S(=O)(=O)N(C)C	none
O=S(=O)(c1cn(Cc2noc(-c3cccc(Br)c3)n2)cn1)N1CCOCC1	none (no result: HCMV UL50-53 inh)
CCOC(=O)C1SC(c2ccccc2)C(C#N)C1(O)c1ccccc1 (stereo not drawn)	none
N#CC1=CN(c2cccc(Br)c2)c2ccccc2S1(=O)=O	none (no result: HCMV UL50-53 inh)

Screening results deposited in PubChem BioAssay by ICCB-Longwood Screening Facility, Harvard Medical School.
